Measurements taken from patent publication US20200397855A1, “MODULATION OF PLA2-G1B IN THERAPY” (priority 2018, published 2020).

By UniProt entry, the sequences of proteins in these tests, tags left out. Residues count along the entry.
UniProt Q07021, 74-282 limits assumed: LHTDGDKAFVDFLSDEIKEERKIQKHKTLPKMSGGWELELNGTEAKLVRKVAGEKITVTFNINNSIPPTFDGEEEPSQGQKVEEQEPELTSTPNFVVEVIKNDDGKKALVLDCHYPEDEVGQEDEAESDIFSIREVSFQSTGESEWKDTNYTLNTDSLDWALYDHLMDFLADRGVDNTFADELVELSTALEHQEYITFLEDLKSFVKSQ

Target: gC1qR at the surface of human CD4 T cells / Jurkat E6.1 T cells (human) (UniProt Q07021)
Assay: cell-based or functional assay

“Complement component C1q from human serum (Sigma C1740) (from UniProt P02745 23-245; P02746 28-253; P02747 29-245) (ligand)” was tested. Which inhibition of pSTAT5 NT in CD4 T cells by C1q alone did it give?
Its inhibition of pSTAT5 NT in CD4 T cells by C1q alone is 40%.

What about the inhibition of pSTAT5 NT in CD4 T cells by C1q with PLA2-GIB of the same substance?
Its inhibition of pSTAT5 NT in CD4 T cells by C1q with PLA2-GIB is 75% and 85%.

Where “and” joins values, the source holds several entries; their conditions need not be identical. Identical values can stand only once.
